In US20140287989A1 (CENTRE NATIONAL DE LA RECHERCHE SCIENTIFIQUE, published 2014) one finds IC50 data, which are given here for two molecules.

The chains behind the UniProt entries cited, without tags or fusion partners. Where a name states a change or a piece, a line headed by the entry shows the natural chain unless it says otherwise.
UniProt P0A988: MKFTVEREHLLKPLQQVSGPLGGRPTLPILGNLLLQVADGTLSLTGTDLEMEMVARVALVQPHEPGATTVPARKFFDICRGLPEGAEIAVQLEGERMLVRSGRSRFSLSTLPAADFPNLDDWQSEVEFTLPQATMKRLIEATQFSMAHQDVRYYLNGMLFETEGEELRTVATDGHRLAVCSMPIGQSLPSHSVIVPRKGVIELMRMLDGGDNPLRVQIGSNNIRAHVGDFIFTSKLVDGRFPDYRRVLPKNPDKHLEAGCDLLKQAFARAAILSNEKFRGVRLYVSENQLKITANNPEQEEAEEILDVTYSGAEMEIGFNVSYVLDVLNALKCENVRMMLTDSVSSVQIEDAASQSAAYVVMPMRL

The target in test [1] is T1, E. coli β clamp (β subunit of DNA polymerase III, dnaN gene product), N-tagged (E. coli, UniProt P0A988 1-366).
T1 construct: The dnaN gene was cloned in pET15b and expressed in BL21 E. coli; also called β ring; β protein; not shown: N-terminal tag from the pET15b vector (N-tagged protein, enriched on Ni-NTA)
The experiment in a line: SPR competition (Biacore 3000): β ring 0.25 µM mixed with the challenger, injected on immobilised P1. For orientation: SPR reads the build-up and loss of mass on a sensor chip optically.

In test [2] the target is T2, E. coli β clamp (β subunit of DNA polymerase III, dnaN gene product) (E. coli, UniProt P0A988 1-366).
T2 construct: Homodimeric ring; N-tagged protein expressed in BL21 E. coli and purified on Ni-NTA and MonoQ; also called β ring; β protein; not shown: N-terminal tag from the pET15b plasmid
The experiment in a line: SPR competition: challenger with β ring injected on immobilized P1.

B1: E. coli DNA polymerase IV (enzyme)
chain: MRKIIHVDMDCFFAAVEMRDNPALRDIPIAIGGSRERRGVISTANYPARKFGVRSAMPTGMALKLCPHLTLLPGRFDAYKEASNHIREIFSRYTSRIEPLSLDEAYLDVTDSVHCHGSATLIAQEIRQTIFNELQLTASAGVAPVKFLAKIASDMNKPNGQFVITPAEVPAFLQTLPLAKIPGVGKVSAAKLEAMGLRTCGDVQKCDLVMLLKRFGKFGRILWERSQGIDERDVNSERLRKSVGVERTMAEDIHHWSECEAIIERLYPELERRLAKVKPDLLIARQGVKLKFDDFQQTTQEHVWPRLNKADLIATARKTWDERRGGRGVRLVGLHVTLLDPQMERQLVLGL
notes: Called the whole polymerase / the full PolIV enzyme; construct and tags not described; also called PolIV; Pol IV
The term IC50 denotes the midpoint of a concentration-inhibition curve. The low end stands for inhibition by little substance, the high end for a need for much substance. B1 yielded an IC50 in test [1] of 290 nM. That is a sub-micromolar value.

B2: E. coli DNA polymerase IV (enzyme)
chain: B1 chain
notes: also called PolIV; Pol IV
For the molecule B2, the IC50 in test [2] amounted to 290 nM.
